Tested on: PLC/PRF/5 tumors
Assay type: in vivo, mice
Conditions: day 35; PM00104 0.90, sorafenib 60 mg/kg/day
Procedure: Female athymic nude mice (Harlan Sprague Dawley, Madison, Wis.) were utilized for all experiments. Animals were housed in ventilated rack caging with food and water ad libitum. The mice were acclimated for at least 5 days prior to tumor implantation with a tumor cell suspension.
The tumor model used in these studies was PLC/PRF/5 cell line, which was obtained from the ATCC (Manassas, Va.).
PLC/PRF/5 were grown in Eagle's minimum essential medium supplemented with 10% FBS and 1% L-glutamine. Each animal was implanted SC on the right flank, using a 13G trochar and 1 mL syringe, with 5×10^6 PLC/PRF/5 cells in a 0.2 mL suspension of 50% Matrigel and 50% serum free MEM medium, without antibiotics. Bacterial cultures were performed on aliquots of the cells prepared for implantation.
Treatments were initiated on DPI 14.
Tumor size measurements were recorded twice weekly from the treatment initiation until the termination of the study.
Mean, standard deviation and standard error of the mean were determined for tumor volume for all animal groups at all assessments. Student's t test was performed on tumor volumes at each measurement day, including at the end of the study, to determine whether there were any statistically significant differences between combination treatment groups and single monotherapy treatment groups.

## CNC(=O)c1cc(Oc2ccc(NC(=O)Nc3ccc(Cl)c(C(F)(F)F)c3)cc2)ccn1 [sorafenib]
  % Inhibition: 63.5%

From patent publication US20110070232A1, “Combination Therapy with an Antitumor Alkaloid” (Pharma Mar, S.A., priority 2008, published 2011)
